Results from ChEMBL document CHEMBL5370584, “Reprogramming Energy Metabolism with Synthesized PDK Inhibitors Based on Dichloroacetate Derivatives and Targeted Delivery Systems for Enhanced Cancer Therapy” (J Med Chem, 2023).

The chains behind the UniProt entries cited, without tags or fusion partners. Residues count along the entry.
UniProt Q15118, 29-436 limits assumed: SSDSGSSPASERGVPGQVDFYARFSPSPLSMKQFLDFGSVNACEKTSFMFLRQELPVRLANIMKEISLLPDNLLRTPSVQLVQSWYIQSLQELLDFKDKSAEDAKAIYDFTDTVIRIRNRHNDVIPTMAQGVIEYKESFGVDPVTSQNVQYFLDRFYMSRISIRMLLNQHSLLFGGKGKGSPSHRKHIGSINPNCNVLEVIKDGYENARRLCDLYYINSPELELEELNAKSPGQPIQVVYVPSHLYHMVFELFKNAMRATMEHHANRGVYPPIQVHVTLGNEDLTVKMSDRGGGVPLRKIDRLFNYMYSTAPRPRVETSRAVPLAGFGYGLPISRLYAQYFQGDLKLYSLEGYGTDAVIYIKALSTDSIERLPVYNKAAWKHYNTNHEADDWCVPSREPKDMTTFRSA

Experiments:
4T1 = test: Antiproliferative activity against mouse 4T1 cells assessed as inhibition of cell growth incubated for 24 hrs by MTT assay
NB-4 = test: Antiproliferative activity against human NB4 cells assessed as inhibition of cell growth incubated for 24 hrs by MTT assay
HeLa = test: Antiproliferative activity against human HeLa cells assessed as inhibition of cell growth incubated for 24 hrs by MTT assay
MCF7 = test: Antiproliferative activity against human MCF7 cells assessed as inhibition of cell growth incubated for 24 hrs by MTT assay
COS-7 = test: Antiproliferative activity against African green monkey COS7 cells assessed as inhibition of cell growth incubated for 24 hrs by MTT assay
[1] = molecular target: [Pyruvate dehydrogenase (acetyl-transferring)] kinase isozyme 1, mitochondrial (Homo sapiens, UniProt Q15118)
MOLM-13 = test: Antiproliferative activity against human MOLM-13 cells assessed as inhibition of cell growth incubated for 24 hrs by MTT assay

Compound | IC50 (4T1) | IC50 (NB-4) | IC50 (HeLa) | IC50 (MCF7) | IC50 (COS-7) | EC50 [1] | IC50 (MOLM-13)
Nc1ccccc1[As]1SCCCS1 | 0.87 µM | 0.39 µM | 0.28 µM | 1.37 µM | 1.54 µM | 17 µM | 0.41 µM
Nc1ccc([As]2SCCCS2)cc1 | 1.67 µM | 1.39 µM | 1.1 µM | 1.86 µM | 6.09 µM | 12 µM | 0.58 µM
